# Biological target: human recombinant P2X7 receptor (Homo sapiens (Human), UniProt Q99572)
# By UniProt entry, the sequences of proteins in these tests, tags left out. Where a name states a change or a piece, a line headed by the entry shows the natural chain unless it says otherwise.
# UniProt Q99572: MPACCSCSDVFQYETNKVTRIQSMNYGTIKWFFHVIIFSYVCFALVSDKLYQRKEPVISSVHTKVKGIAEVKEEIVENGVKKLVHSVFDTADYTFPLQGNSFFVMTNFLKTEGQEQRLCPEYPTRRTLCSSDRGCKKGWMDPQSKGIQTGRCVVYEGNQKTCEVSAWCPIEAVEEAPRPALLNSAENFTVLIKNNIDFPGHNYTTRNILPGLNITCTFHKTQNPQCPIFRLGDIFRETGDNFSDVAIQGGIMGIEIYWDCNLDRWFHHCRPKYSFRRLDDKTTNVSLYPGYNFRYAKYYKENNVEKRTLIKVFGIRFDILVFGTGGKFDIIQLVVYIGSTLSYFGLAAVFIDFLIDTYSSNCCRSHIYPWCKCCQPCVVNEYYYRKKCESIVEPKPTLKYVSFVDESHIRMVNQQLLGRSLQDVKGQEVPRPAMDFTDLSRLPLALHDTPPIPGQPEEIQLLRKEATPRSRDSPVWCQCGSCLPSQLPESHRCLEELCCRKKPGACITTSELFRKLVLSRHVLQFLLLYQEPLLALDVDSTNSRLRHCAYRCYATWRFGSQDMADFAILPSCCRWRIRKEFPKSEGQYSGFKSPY
# Test: YO-PRO assay: P2X7 receptor antagonistic activity (ATP-induced YO-PRO-1 uptake, FLIPR)
# Details: not given
row,SMILES,IC50 [nM]
1,"O=C(NCc1cccc(Cl)c1C(F)(F)F)C1COc2ncccc21 (racemic) [Example 73, rac-2,3-Dihydro-furo[2,3-b]pyridine-3-carboxylic acid 3-chloro-2-trifluoromethyl-benzylamide]",20.2
2,"Cc1ncc(C(CNC(=O)C2COc3ncccc32)N2CCOCC2)cn1 (single isomer, unassigned) [Example 29, rac-2,3-Dihydro-furo[2,3-b]pyridine-3-carboxylic acid [2-(2-methyl-pyrimidin-5-yl)-2-morpholin-4-yl-ethyl]-amide]",1680
3,"O=C(NCC1(c2ccc(Cl)nc2)CCC(F)(F)CC1)C1CCOc2ncccc21 (racemic) [Example 67, rac-3,4-Dihydro-2H-pyrano[2,3-b]pyridine-4-carboxylic acid (1-(6-chloropyridin-3-yl)-4,4-difluorocyclohexylmethyl)-amide]",7.3
4,"O=C(NCC(c1ccc(Cl)nc1)N1CCC(F)(F)CC1)C1COc2ncccc21 (single isomer, unassigned) [Example 75, rac-2,3-Dihydro-furo[2,3-b]pyridine-3-carboxylic acid [2-(6-chloro-pyridin-3-yl)-2-(4,4-difluoro-piperidin-1-yl)-ethyl]-amide]",35.3
5,"Cc1ncc(C(CNC(=O)C2COc3ncccc32)N2CCOCC2)cn1 (single isomer, unassigned) [Example 30, rac-2,3-Dihydro-furo[2,3-b]pyridine-3-carboxylic acid [2-(2-methyl-pyrimidin-5-yl)-2-morpholin-4-yl-ethyl]-amide]",225
6,"O=C(NCc1ccc(C(F)(F)F)cc1)C1COc2ncccc21 (racemic) [Example 47, rac-2,3-Dihydro-furo[2,3-b]pyridine-3-carboxylic acid 4-trifluoromethyl-benzylamide]",1250
7,"O=C(NCc1ccc(Cl)cc1CO)C1COc2ncccc21 (racemic) [Example 117, rac-2,3-Dihydro-furo[2,3-b]pyridine-3-carboxylic acid 4-chloro-2-hydroxymethyl-benzylamide]",1490
8,"O=C(NCC(c1ccc(Cl)nc1)N1CCC(F)(F)CC1)C1COc2ncccc21 (single isomer, unassigned) [Example 74, rac-2,3-Dihydro-furo[2,3-b]pyridine-3-carboxylic acid [2-(6-chloro-pyridin-3-yl)-2-(4,4-difluoro-piperidin-1-yl)-ethyl]-amide]",120
9,"O=C(NC1CCc2c(Cl)cc(Cl)cc21)C1COc2ncccc21 (racemic) [Example 95, rac-2,3-Dihydro-furo[2,3-b]pyridine-3-carboxylic acid (4,6-dichloro-indan-1-yl)-amide]",978
10,"CN(Cc1ccc(Cl)cc1)C(=O)C1CCOc2ncccc21 (racemic) [Example 37, rac-3,4-Dihydro-2H-pyrano[2,3-b]pyridine-4-carboxylic acid (4-chloro-benzyl)-methyl-amide]",758
11,"O=C(NC1CCc2c(Cl)cc(Cl)cc21)C1COc2ncccc21 (racemic) [Example 94, rac-2,3-Dihydro-furo[2,3-b]pyridine-3-carboxylic acid (4,6-dichloro-indan-1-yl)-amide]",570
12,"N#Cc1cccc(CNC(=O)C2COc3ncccc32)c1Cl (racemic) [Example 56, rac-2,3-Dihydro-furo[2,3-b]pyridine-3-carboxylic acid 2-chloro-3-cyano-benzylamide]",125
13,"O=C(NCC1(c2ccc(Cl)nc2)CCCCC1)C1CCOc2ncccc21 (racemic) [Example 19, rac-3,4-Dihydro-2H-pyrano[2,3-b]pyridine-4-carboxylic acid [1-(6-chloro-pyridin-3-yl)-cyclohexylmethyl]-amide]",6.3

# Same assay, conditions: read-out: IC50 [nM], antagonistic activities with respect to the P2X7 receptor; HEK-293 cells expressing human recombinant P2X7 receptor; YO-PRO-1 fluorescence; ATP 250 μM, 90 minutes; highest concentration 10 μM
row,SMILES,IC50 [nM]
1,"O=C(NC1CCc2cc(Cl)cc(Cl)c21)C1COc2ncccc21 (single isomer, unassigned) [Example 105, 2,3-Dihydro-furo[2,3-b]pyridine-3-carboxylic acid (5,7-dichloro-indan-1-yl)-amide]",1.3
2,"O=C(NC1CCc2cc(Cl)cc(Cl)c21)C1COc2ncccc21 (single isomer, unassigned) [Example 86, 2,3-Dihydro-furo[2,3-b]pyridine-3-carboxylic acid (5,7-dichloro-indan-1-yl)-amide]",164
3,"O=C(NC1CCc2cccc(Cl)c21)C1COc2ncccc21 (single isomer, unassigned) [Example 110, 2,3-Dihydro-furo[2,3-b]pyridine-3-carboxylic acid (7-chloro-indan-1-yl)-amide]",5.5
4,"O=C(NC1CCc2cc(Cl)cc(Cl)c21)C1COc2ncccc21 (single isomer, unassigned) [Example 85, 2,3-Dihydro-furo[2,3-b]pyridine-3-carboxylic acid (5,7-dichloro-indan-1-yl)-amide]",9.5
5,"O=C(NC1CCc2cc(Cl)cc(Cl)c21)C1COc2ncccc21 (single isomer, unassigned) [Example 104, 2,3-Dihydro-furo[2,3-b]pyridine-3-carboxylic acid (5,7-dichloro-indan-1-yl)-amide]",5100
6,"O=C(NC1CCc2cccc(Cl)c21)C1COc2ncccc21 (single isomer, unassigned) [Example 109, 2,3-Dihydro-furo[2,3-b]pyridine-3-carboxylic acid (7-chloro-indan-1-yl)-amide]",10000

# From patent US9409917B2, “Heterocyclic amide derivatives as P2X7 receptor antagonists” (ACTELION PHARMACEUTICALS LTD., priority 2012, dated 2016)
